Columns and labels:
[1] = biological target: T1, Fatty-acid amide hydrolase 1 (Homo sapiens, UniProt O00519); assay: Substrate activity at human transmembrane domain deficient FFAH expressed in Escherichia coli assessed as parent compound remaining at 2 times IC50 after 30 mins by MS analysis
[2] = biological target: T1, Fatty-acid amide hydrolase 1; assay: Substrate activity at human transmembrane domain deficient FFAH expressed in Escherichia coli assessed as parent compound remaining at 2 times IC50 after 60 mins by MS analysis
[3] = biological target: T1, Fatty-acid amide hydrolase 1; assay: Substrate activity at human transmembrane domain deficient FFAH expressed in Escherichia coli assessed as parent compound remaining at 2 times IC50 measured immediately by MS analysis
[4] = biological target: T1, Fatty-acid amide hydrolase 1; assay: Reversible inhibition of human transmembrane domain deficient FFAH expressed in Escherichia coli assessed as residual activity at 10 times IC50 using AAMCA as substrate preincubated for 1 hr followed by substrate addition and subsequent 10 fold compound dilution by fluorescence assay relative to control
[5] = biological target: T1, Fatty-acid amide hydrolase 1; assay: Substrate activity at human transmembrane domain deficient FFAH expressed in Escherichia coli assessed as parent compound remaining at 2 times IC50 after 15 mins by MS analysis

By UniProt entry, the sequences of proteins in these tests, tags left out.
UniProt O00519, whole entry: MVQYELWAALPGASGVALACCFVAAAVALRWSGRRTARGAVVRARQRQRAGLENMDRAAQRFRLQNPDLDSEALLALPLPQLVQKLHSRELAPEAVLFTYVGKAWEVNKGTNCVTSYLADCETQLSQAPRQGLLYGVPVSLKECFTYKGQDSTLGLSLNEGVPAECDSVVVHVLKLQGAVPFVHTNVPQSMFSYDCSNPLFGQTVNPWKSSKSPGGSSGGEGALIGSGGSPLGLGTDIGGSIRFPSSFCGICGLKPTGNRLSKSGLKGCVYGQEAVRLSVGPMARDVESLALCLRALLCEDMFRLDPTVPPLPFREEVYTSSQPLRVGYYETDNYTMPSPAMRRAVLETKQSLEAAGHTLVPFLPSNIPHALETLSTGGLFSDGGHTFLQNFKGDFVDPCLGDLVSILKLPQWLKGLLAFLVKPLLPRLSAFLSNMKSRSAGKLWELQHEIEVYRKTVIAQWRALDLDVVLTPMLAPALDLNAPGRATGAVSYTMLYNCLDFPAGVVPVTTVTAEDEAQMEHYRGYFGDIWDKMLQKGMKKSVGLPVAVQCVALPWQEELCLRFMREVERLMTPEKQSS

SMILES: O=C(NC1CCC(=Cc2cccc(Oc3ccc(C(F)(F)F)cn3)c2)CC1)c1cccnc1 (stereo not given)
- Activity [1]: 92.5%
- Activity [2]: 92.1%
- Activity [3]: 100%
- Activity [4]: 30%
- Activity [5]: 95.9%

From ChEMBL document CHEMBL4371025, “Discovery and evaluation of novel FAAH inhibitors in neuropathic pain model” (Bioorg Med Chem Lett, 2019)
